Reference: ChEMBL document CHEMBL5108060, “Discovery, Characterization, and Structure-Based Optimization of Small-Molecule In Vitro and In Vivo Probes for Human DNA Polymerase Theta” (J Med Chem, 2022)

The chains behind the UniProt entries cited, without tags or fusion partners. Where a name states a change or a piece, a line headed by the entry shows the natural chain unless it says otherwise.
UniProt O75417: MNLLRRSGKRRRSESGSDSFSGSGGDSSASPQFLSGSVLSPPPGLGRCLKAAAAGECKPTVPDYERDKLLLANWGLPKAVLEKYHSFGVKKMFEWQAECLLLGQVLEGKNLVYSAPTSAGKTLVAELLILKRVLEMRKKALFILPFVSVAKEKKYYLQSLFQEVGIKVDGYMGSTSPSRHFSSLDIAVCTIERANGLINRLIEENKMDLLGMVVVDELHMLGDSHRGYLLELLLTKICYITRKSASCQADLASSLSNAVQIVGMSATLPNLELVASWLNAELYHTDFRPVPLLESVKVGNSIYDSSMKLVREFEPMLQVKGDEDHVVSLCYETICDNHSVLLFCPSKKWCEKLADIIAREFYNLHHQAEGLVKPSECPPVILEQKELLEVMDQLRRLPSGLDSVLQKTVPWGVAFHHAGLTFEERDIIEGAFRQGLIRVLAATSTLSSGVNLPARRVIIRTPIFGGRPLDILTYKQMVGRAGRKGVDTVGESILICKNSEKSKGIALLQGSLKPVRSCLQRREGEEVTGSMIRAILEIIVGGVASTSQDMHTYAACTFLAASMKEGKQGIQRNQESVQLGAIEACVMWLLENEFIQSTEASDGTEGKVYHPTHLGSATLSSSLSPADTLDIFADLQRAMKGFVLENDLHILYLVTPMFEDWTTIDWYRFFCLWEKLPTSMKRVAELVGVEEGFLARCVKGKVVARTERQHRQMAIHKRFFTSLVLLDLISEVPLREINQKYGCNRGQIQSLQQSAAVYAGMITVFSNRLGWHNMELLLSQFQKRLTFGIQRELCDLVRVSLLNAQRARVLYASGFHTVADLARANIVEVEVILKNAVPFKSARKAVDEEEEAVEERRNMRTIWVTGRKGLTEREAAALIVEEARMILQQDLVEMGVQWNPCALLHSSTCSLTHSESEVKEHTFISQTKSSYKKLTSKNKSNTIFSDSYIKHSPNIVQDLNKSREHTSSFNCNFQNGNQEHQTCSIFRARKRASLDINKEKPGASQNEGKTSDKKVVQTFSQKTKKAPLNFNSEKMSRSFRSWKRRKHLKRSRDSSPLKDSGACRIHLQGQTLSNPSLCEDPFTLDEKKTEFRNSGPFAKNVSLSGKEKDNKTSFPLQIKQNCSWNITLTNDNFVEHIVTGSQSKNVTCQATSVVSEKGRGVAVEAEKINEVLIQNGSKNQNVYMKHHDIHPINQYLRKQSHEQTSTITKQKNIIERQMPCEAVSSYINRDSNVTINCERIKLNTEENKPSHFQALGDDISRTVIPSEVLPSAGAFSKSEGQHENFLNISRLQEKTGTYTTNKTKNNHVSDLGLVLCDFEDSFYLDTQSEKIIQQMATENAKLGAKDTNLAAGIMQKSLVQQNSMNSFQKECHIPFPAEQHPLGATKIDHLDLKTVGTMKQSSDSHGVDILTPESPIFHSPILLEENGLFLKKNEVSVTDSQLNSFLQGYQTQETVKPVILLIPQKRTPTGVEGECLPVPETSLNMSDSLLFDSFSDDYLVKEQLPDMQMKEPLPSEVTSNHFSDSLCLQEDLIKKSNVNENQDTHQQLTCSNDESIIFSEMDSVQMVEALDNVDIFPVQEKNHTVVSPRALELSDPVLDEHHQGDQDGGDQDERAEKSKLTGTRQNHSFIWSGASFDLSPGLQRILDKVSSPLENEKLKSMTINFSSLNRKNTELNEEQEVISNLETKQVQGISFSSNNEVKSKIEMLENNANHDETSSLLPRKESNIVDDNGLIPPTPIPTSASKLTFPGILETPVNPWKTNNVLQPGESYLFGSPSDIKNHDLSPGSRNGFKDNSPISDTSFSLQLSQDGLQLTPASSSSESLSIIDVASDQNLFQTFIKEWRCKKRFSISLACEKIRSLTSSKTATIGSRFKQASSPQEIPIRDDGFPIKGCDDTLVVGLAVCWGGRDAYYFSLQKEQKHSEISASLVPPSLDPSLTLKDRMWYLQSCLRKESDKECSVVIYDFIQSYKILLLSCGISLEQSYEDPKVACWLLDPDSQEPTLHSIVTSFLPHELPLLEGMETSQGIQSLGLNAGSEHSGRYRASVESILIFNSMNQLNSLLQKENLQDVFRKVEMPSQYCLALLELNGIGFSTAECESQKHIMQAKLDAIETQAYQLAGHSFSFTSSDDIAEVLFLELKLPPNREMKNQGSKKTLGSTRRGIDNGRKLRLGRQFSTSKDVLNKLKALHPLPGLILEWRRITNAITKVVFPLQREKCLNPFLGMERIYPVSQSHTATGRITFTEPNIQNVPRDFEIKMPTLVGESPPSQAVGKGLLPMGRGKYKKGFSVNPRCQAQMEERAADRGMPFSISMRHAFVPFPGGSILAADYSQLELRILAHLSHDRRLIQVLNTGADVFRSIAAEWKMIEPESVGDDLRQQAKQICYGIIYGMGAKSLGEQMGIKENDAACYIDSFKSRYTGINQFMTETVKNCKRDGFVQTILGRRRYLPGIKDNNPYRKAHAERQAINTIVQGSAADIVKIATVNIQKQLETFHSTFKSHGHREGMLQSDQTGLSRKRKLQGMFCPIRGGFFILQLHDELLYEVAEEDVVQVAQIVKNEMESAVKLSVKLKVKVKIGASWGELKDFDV

Experiments:
DNA polymerase theta [1] = target: T1, DNA polymerase theta (Homo sapiens, UniProt O75417); assay: Displacement of tracer from recombinant Tb-labeled DNA polymerase theta (unknown origin) assessed as Koff using DNA as substrate preincubated for 30 mins followed by compound addition for 2 hrs by HTRF assay
DNA polymerase theta [2] = target: T1, DNA polymerase theta; assay: Displacement of tracer from recombinant Tb-labeled DNA polymerase theta (unknown origin) assessed as Kon using DNA as substrate preincubated for 30 mins followed by compound addition for 2 hrs by HTRF assay

| SMILES | K (DNA polymerase theta [1]) | K (DNA polymerase theta [2]) |
| --- | --- | --- |
| Cc1cccc(N(C)C(=O)[C@@H]2[C@H](O)CCN2c2nc(C)cc(C(F)(F)F)c2C#N)c1 | 0.082 s⁻¹ | 1.85 10^7/M/s |
| Cc1cccc(N(C)C(=O)[C@@H]2[C@@H](O)CCN2c2nc(C)cc(C(F)(F)F)c2C#N)c1 | 0.16 s⁻¹ | 6.69 10^7/M/s |
| Cc1cccc(N(C)C(=O)[C@@H]2C[C@H](O)CN2c2nc(C)cc(C)c2C#N)c1 | 0.17 s⁻¹ | 1.06 10^7/M/s |
| Cc1cccc(N(C)C(=O)[C@@H]2C[C@H](O)CN2c2nc(C)cc(C(F)(F)F)c2C#N)c1 | 0.32 s⁻¹ | 4.05 10^7/M/s |
